This passage reports inhibition and Selectivity ratio results from ChEMBL document CHEMBL4017513, “Structure-Activity Relationships of Potent, Targeted Covalent Inhibitors That Abolish Both the Transamidation and GTP Binding Activities of Human Tissue Transglutaminase” (J Med Chem, 2017).

Activity calls are given as the source filed them. The rule behind the calls is not given here.

The target of test [1] is T1, Protein-glutamine gamma-glutamyltransferase (Homo sapiens) (UniProt P21980).
T1 sequence (whole entry): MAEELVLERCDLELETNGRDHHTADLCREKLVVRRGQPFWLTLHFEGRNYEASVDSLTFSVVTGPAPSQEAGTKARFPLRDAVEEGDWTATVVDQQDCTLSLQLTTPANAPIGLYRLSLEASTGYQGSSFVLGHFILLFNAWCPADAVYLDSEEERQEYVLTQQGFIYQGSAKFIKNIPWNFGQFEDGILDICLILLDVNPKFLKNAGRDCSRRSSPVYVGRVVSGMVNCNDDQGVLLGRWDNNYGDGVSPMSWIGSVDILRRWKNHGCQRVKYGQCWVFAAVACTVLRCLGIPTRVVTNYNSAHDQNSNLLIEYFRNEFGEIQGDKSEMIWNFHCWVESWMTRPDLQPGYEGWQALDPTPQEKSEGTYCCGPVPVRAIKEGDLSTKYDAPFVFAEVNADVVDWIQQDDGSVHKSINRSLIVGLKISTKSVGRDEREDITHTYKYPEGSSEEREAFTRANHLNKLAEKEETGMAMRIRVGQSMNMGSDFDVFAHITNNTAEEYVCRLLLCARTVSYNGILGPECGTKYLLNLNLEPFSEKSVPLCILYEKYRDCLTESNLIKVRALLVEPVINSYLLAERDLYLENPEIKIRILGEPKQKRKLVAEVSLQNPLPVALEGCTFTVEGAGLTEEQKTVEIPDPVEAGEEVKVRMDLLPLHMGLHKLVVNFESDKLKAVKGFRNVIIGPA
The test is described as follows: Inhibition of human TG2 binding with BODIPY GTP-gamma-S preincubated for 30 mins followed by BODIPY GTP-gamma-S addition measured after 10 mins.

For test [2], the species on record is Homo sapiens. The test is described as follows: Selectivity ratio of Kobs for human TG2 to Kobs for human TG1.
The species named for test [3] is Homo sapiens. Nature of the test: Selectivity ratio of Kobs for human TG2 to Kobs for human F13a.

In the case of `C=CC(=O)NCCCC[C@H](NC(=O)OCc1ccccc1)C(=O)N1CCN(S(=O)(=O)c2cccc3c(N(C)C)cccc23)CC1`, the inhibition result in test [1] is “Active”. Also, the Selectivity ratio in test [2] is 48; in test [3] it was 80.

Turning to `C=CC(=O)NCCCC[C@H](NC(=O)OCc1ccccc1)C(=O)N1CCN(C(=O)c2cccc3ccccc23)CC1`, the inhibition entry in test [1] is “Active”.
